System: A431 cells
Experiment: Inhibition of peptide internalisation using anti-EGFr Cetuximab
Format: cell-based, human
Details: Cetuximab 10 µg/mL, 30 min pre-incubation, then FITC-NRPDSAQFWLHH 0.25 mM, 16 h, 37 °C
Procedure: A431 cells (200,000 cells/well) were seeded onto sterile glass coverslips in a six-well plate and incubated overnight at 37 °C. The medium was then removed and the cells were pre-incubated with 10 µg/mL anti-EGFR (Cetuximab clone C225; Merck, Billerica, Massachusetts, USA) for 30 min. After the pre-incubation, FITC-NRPDSAQFWLHH (0.25 mM) was added to the cells and incubated for 16 h at 37 °C in the presence of anti-EGFR (10 µg/mL). After removing the medium, the cells were washed, fixed, stained with Hoechst 33342, and viewed under a fluorescence microscope.

Cetuximab: anti-EGFr antibody, clone C225
Effect of anti-EGFr antibody on internalisation of the peptide into A431 cells: greatly reduced

Source: PMC5981617, “Targeted Delivery of Cell Penetrating Peptide Virus-like Nanoparticles to Skin Cancer Cells” (Scientific Reports, 2018)
